The entries are a selection whose mix differs from that of the whole data set. The source made the active and inactive calls. No stated cut-off is given here; in the data, active means activity change below about -75% (passing the limit was not always enough); inconclusive means no clear call, values can overlap the other calls.

The nature of the test: Vibrio harveyi AI-2 quorum sensing modulators, primary screen, JMH597 strain, luminescence/OD600 ratio (AID 2094). To be noted: Vibrio harveyi JMH597 AI-2 luminescence/OD600 ratio, 9 h; at 7.5 µM; hits give low values; 0 = neutral-control median; strain lacks LuxN and CqsS sensors.
Regarding `O=C(NCC1(N2CCCCC2)CCCCC1)c1ccc(F)cc1`, the activity change is inactive: 26.2%. Regarding `COc1ccc(NC2CCN(CCc3ccccc3)CC2)c(OC)c1`, the activity change was inactive: 15.5%. In the case of `CCOC(=O)N1CCC(Nc2ccc(F)cc2)CC1`, the activity change was inactive: 3.61%. Consider `CCOc1ccc(C)cc1CN(CCCl)CCCl`, for which the activity change is inactive: 27.6%. Then `CCOC(=O)N1CCC(Nc2cccc(C)c2)CC1`, with inactive: 19.7%; and `COc1cc(C(=O)NCC2(N(C)C)CCCCC2)ccc1OC(F)F`, with inactive: 21.1%.

For the compound `Cc1ccc(OCC(C)C)c(CN(CCCl)CCCl)c1`, the activity change is inactive: -4.1%. Then `O=C(NCC1(N2CCCCC2)CCCCC1)c1ccc(=O)[nH]c1`, with inactive: 18.5%; and `O=C(NCC1(N2CCCCC2)CCCCC1)c1cccs1`, with inactive: 13.7%. Regarding `COc1ccc(C(=O)NCC2(N3CCCCC3)CCCCC2)cc1`, the activity change is inactive: 14.2%.

As to `COc1ccc(C(=O)NCC2(N3CCCCC3)CCCCC2)c(OC)c1OC`, the activity change was inactive: 12%. Consider `CC(C)(C)OC(=O)N1CCC(N(C(=O)c2ccccc2)c2ccc(F)cc2)CC1`, for which the activity change was inactive: 17.4%. Next, `CCOC(=O)N1CCC(Nc2ccc(OC)cc2)CC1`: inactive: 2.73%; `N#CC1(Nc2ccccc2)CCN(Cc2ccccc2)CC1`: inactive: 1.15%; `O=C(OC1CN2CCC1CC2)C1c2ccccc2Oc2ccccc21` (stereo not drawn): inactive: 24.6%. Next, `O=C(NCC1(N2CCOCC2)CCCCC1)c1cc2ccccc2o1`: inactive: 14.8%; `O=C(NCC1(N2CCCCC2)CCCCC1)c1ccc(Cl)nc1`: inactive: -5.81%. For the compound `Cc1cc(C)cc(N(C(=O)c2ccccc2)C2CCN(C(=O)OC(C)(C)C)CC2)c1`, the activity change is inactive: 1.89%. `COc1cc(OC)c(C(=O)NCC2(N(C)C)CCCCC2)cc1OC`: the activity change is inactive: 21.2%. As to `COc1ccc(CN(CCCl)CCCl)cc1Cl`, the activity change is inactive: 5.52%.

On to `CN(C)c1cccc(C(=O)NCC2(N3CCCCC3)CCCCC2)c1`, for which the activity change is inactive: 8.17%. Turning to `CC(C)c1ccc(NC2CCN(C(=O)OC(C)(C)C)CC2)cc1`, the activity change is inactive: 27.6%. With `CCCOc1ccc(C(=O)NCC2(N(C)C)CCCCC2)cc1OC`, the activity change was inactive: 9.16%. In the case of `CN1CCC(Nc2cccc(F)c2)CC1`, the activity change was inactive: 3.24%. In the case of `O=C(NCC1(N2CCCCC2)CCCCC1)c1cccc([N+](=O)[O-])c1`, the activity change was inactive: 12.4%.

As for `CCN1CCC(Nc2ccc(Cl)cc2)CC1`, the activity change was inactive: 33%. As for `N#CC1(Nc2ccccc2)CCN(CCc2ccccc2)CC1`, the activity change was inactive: 15.9%. For the compound `O=C(NCC1(N2CCCCC2)CCCCC1)c1ccc(OC(F)F)cc1`, the activity change is inactive: 23.9%. `CN1CCN(CCOC(=O)C(O)(c2ccccc2)c2ccccc2)CC1`: the activity change was inactive: -2.98%. Next, `COc1ccc(NC2CCN(C(=O)OC(C)(C)C)CC2)cc1`: inactive: 22.1%; `COc1cc(C(=O)NCC2(N3CCCCC3)CCCCC2)ccc1OC(F)F`: inactive: 11.3%. Then `O=C(NCC1(N2CCOCC2)CCCCC1)c1cc(=O)[nH]c2ccccc12`, with inactive: 23.4%. For the compound `O=C(NCC1(N2CCCCC2)CCCCC1)c1cccc(C(F)(F)F)c1`, the activity change is inactive: 36%. As to `CC(C)(C)OC(=O)N1CCC(N(C(=O)c2ccccc2)c2ccc(Cl)cc2)CC1`, the activity change was inactive: -1.2%. Regarding `N#Cc1ccc(C(=O)NCC2(N3CCCCC3)CCCCC2)cc1`, the activity change was inactive: 41.2%.

With `c1ccc(CN2CCC(Nc3ccccc3)CC2)cc1`, the activity change is inactive: 3.71%.

In the case of `CCCN1CCC(Nc2cc(OC)cc(OC)c2)CC1`, the activity change is inactive: 40.4%. Consider `CN(C)C1(CNC(=O)c2cccc(C#N)c2)CCCCC1`, for which the activity change is inactive: 7.59%.

For `COc1ccc(C(=O)NCC2(N3CCOCC3)CCCCC2)cc1OC`, the activity change is inactive: 12.9%. In the case of `CCc1cc(C(=O)NCC2(N3CCCCC3)CCCCC2)sc1C`, the activity change was inactive: 33.7%.

For the compound `O=C(OC1CN2CCC1CC2)C1c2ccccc2C=Cc2ccccc21` (stereo not drawn), the activity change was inactive: 18.9%. Take `N/C(=N\O)c1c(N)no[n+]1[O-]`: the activity change was inactive: 15.3%. For the compound `CCOC(=O)N1CCC(Nc2ccc(C)cc2)CC1`, the activity change was inactive: 29.9%. With `CCCOc1ccc(C(=O)NCC2(N(C)C)CCCCC2)cc1`, the activity change is inactive: 17.2%.

For the compound `CC(C)(C)OC(=O)N1CCC(Nc2ccccc2)CC1`, the activity change is inactive: 15.5%. Then `O=C(O)C1(Nc2ccccc2)CCN(Cc2ccccc2)CC1`, with inactive: 6.57%; and `CCOc1ncccc1C(=O)NCC1(N2CCOCC2)CCCCC1`, with inactive: -3.59%; and `CN1CCC(Nc2ccc(F)c(Cl)c2)CC1`, with inactive: 22.5%.

`CCCOc1ccc(C)cc1CN(CCCl)CCCl`: the activity change is inactive: 34.9%.

For the compound `CN1CCC(Nc2ccc(Cl)cc2)CC1`, the activity change is inactive: 24.1%.

Take `CCC(CO)(C(=O)OC1CN2CCC1CC2)c1ccccc1` (stereo not drawn): the activity change was inactive: 2.52%. On to `COc1cc(OC)cc(C(=O)NCC2(N3CCOCC3)CCCCC2)c1`, for which the activity change is inactive: -10.6%. For the compound `COc1cccc(C(=O)N(c2cc(C)cc(C)c2)C2CCN(C(=O)OC(C)(C)C)CC2)c1`, the activity change is inactive: 9.58%. On to `Cc1ccc(C(=O)NCC2(N3CCCCC3)CCCCC2)o1`, for which the activity change is inactive: 9.09%. Turning to `Fc1ccccc1NC1CCN(Cc2ccccc2)CC1`, the activity change is inactive: 0.146%.

With `COc1cc(OC)cc(C(=O)NCC2(N3CCCCC3)CCCCC2)c1`, the activity change was inactive: -8.85%. Take `CN(C)c1ccc(C(=O)NCC2(N3CCCCC3)CCCCC2)cc1`: the activity change was inactive: 12.2%. `CCN1CCC(Nc2cccc(F)c2)CC1`: the activity change is inactive: 28.7%.

The record behind these values is PubChem BioAssay AID2094 (Broad Institute, 2009).
